PubChem BioAssay AID453 (PCMD, 2006)
The list shows a part of the results, in another mix than the full data. Activity calls are given as the source filed them. No stated cut-off is given here; in the data, active means inhibition above about 21%; inactive means the rest.

What follows are compounds tested against Cathepsin B (Homo sapiens) (UniProt P07858) (assay: human cathepsin B inhibitors, primary screen, biochemical, fluorogenic substrate (AID 453;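 further: 0% = enzyme with no compound and 100% = no enzyme blank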)). Settings: purified cathepsin B, fluorescence, stronger effect = higher value,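 tested at 10 µM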.
For `CP(=O)(Nc1ccccc1F)Oc1ccccc1` (stereo not drawn), the inhibition was inactive: -2.51%. In the case of `CCOP(C)(=S)SCC(=O)NC(C)(CC)C(=O)O` (stereo not drawn), the inhibition was inactive: 0.44%. For `Cc1ccccc1NP(C)(=O)Nc1ccccc1C`, the inhibition was inactive: 4.37%. In the case of `CP(=O)(Nc1ccc2c(c1)OCCO2)Oc1ccccc1` (stereo not drawn), the inhibition was inactive: 2.8%. In the case of `CN(C)CCOC(=O)C(O)(c1ccccc1)C1CCCCC1` (stereo not drawn), the inhibition was inactive: 2.49%. `CP(=O)(Oc1ccccc1)N1CCOC1=O` (stereo not drawn) was tested, and the inhibition was inactive: 3.77%. For `COc1ccccc1OP(C)(=O)Nc1c(C)n(C)n(-c2ccccc2)c1=O` (stereo not drawn), the inhibition was inactive: 2.83%. With `CCN(CC)CC(O)COC(=O)C(O)(c1ccccc1)C1CCCCC1` (stereo not drawn) the inhibition was inactive: 2.01%. In the case of `CP(=O)(Nc1ccccn1)Oc1ccccc1` (stereo not drawn), the inhibition was inactive: 2.24%. With `COc1ccccc1OP(C)(=O)Nc1ccc(C)c(C)c1` (stereo not drawn) the inhibition was inactive: 3.44%. In the case of `Cc1nc2ccc3ccccc3c2o1.O=[N+]([O-])c1cc([N+](=O)[O-])c(O)c([N+](=O)[O-])c1`, the inhibition was inactive: 2.11%. In the case of `COc1ccccc1OP(C)(=O)Nc1ccc(C)cc1` (stereo not drawn), the inhibition was inactive: -1.43%. In the case of `Cc1ccc(NP(C)(=O)Oc2ccccc2)c(C)c1` (stereo not drawn), the inhibition was inactive: 0.21%. `CP(=O)(NC(=O)Nc1ccccc1)Oc1ccccc1` (stereo not drawn) was tested, and the inhibition was inactive: -2.25%. `CCOP(C)(=S)SCC(=O)NC(C)C(=O)O` (stereo not drawn) was tested, and the inhibition was inactive: 11.5%. `CP(=S)(Nn1cnnc1)Oc1ccccc1` (stereo not drawn) was tested, and the inhibition was inactive: 5.28%. In the case of `Cc1nc2ccc3ccccc3c2s1.O=[N+]([O-])c1cc([N+](=O)[O-])c(O)c([N+](=O)[O-])c1`, the inhibition was inactive: 0.33%. In the case of `Cc1ccc(C)c(NP(C)(=O)Oc2ccccc2)c1` (stereo not drawn), the inhibition was inactive: 1.44%.
